Results: ChEMBL document CHEMBL2202955, “Identification of Potent, Selective, Cell-Active Inhibitors of the Histone Lysine Methyltransferase EZH2” (ACS Med Chem Lett, 2012)

The chains behind the UniProt entries cited, without tags or fusion partners.
UniProt Q15910, whole entry, looked up: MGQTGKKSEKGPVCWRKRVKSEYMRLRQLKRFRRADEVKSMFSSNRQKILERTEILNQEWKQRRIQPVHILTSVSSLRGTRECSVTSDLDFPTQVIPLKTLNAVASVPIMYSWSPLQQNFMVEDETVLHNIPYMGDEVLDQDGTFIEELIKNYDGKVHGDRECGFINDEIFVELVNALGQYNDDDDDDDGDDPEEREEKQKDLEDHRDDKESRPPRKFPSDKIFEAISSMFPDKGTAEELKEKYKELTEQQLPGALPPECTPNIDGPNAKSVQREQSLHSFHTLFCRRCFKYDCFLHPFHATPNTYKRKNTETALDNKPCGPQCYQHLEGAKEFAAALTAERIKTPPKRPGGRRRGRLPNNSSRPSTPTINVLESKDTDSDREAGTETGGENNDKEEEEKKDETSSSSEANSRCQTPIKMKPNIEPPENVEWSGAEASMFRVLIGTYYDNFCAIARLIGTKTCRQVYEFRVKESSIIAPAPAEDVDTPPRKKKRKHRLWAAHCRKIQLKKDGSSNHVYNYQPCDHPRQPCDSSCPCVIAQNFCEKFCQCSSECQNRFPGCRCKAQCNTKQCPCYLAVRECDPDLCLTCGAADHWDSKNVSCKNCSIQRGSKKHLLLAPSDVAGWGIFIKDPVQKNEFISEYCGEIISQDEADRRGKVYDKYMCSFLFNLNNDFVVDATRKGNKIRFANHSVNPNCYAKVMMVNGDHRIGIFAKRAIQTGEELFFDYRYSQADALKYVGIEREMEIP

Tests used:
Type in all cases: cell-based
[1] = molecular target: T1, Histone-lysine N-methyltransferase EZH2 (Homo sapiens, UniProt Q15910); test: Inhibition of EZH2-mediated proliferation of human […] cells after 6 days by chemiluminescence analysis
[2] = molecular target: T1, Histone-lysine N-methyltransferase EZH2; test: Inhibition of EZH2-mediated proliferation of human ZR-75-1 cells after 6 days by chemiluminescence analysis
[3] = molecular target: T1, Histone-lysine N-methyltransferase EZH2; test: Inhibition of EZH2-mediated nuclear H3K27 methylation in human HCC1806 cells after 72 hrs by immunofluorescence analysis
Summary of the method: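 HCC1806 breast cancer cells were exposed to compound for 72 h. Nuclear H3K27me3 was quantified by an immunofluorescence imaging assay and normalized to total H3. Values are the mean of at least three independent replicates.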

[4] = molecular target: T1, Histone-lysine N-methyltransferase EZH2; test: Inhibition of EZH2-mediated proliferation of human DU145 cells after 6 days by chemiluminescence analysis; conditions: DU-145
[5] = molecular target: T1, Histone-lysine N-methyltransferase EZH2; test: Inhibition of EZH2-mediated nuclear H3K27 methylation in human HCC1806 cells at >1000 nM after 72 hrs by immunofluorescence analysis
Summary of the method: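 HCC1806 breast cancer cells were exposed to compound for 72 h. Nuclear H3K27me3 was quantified by an immunofluorescence imaging assay and normalized to total H3. […] Values are the mean of at least three independent replicates.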

[6] = molecular target: T1, Histone-lysine N-methyltransferase EZH2; test: Inhibition of EZH2-mediated proliferation of human PC3 cells after 6 days by chemiluminescence analysis; conditions: PC-3
[7] = molecular target: T1, Histone-lysine N-methyltransferase EZH2; test: Inhibition of EZH2-mediated proliferation of human SKBR3 cells after 6 days by chemiluminescence analysis; conditions: SK-BR-3

How did the inhibition [1] turn out when `CCCc1cc(C)[nH]c(=O)c1CNC(=O)c1cc(-c2ccnc(N3CCN(C)CC3)c2)cc2c1cnn2C(C)C` was run?
The inhibition was “Active”.

What about the inhibition [2] of the same compound?
Its inhibition is “Active”.

What about the inhibition [3] of the same compound?
The inhibition was “Dose-dependent effect”.

What about the inhibition [4] of the same compound?
Its inhibition is “Active”.

And the inhibition [5]?
Its inhibition is > 90%.

What about the inhibition [6] of the same compound?
The inhibition was “Active”.

And the inhibition [7]?
The inhibition was “Active”.

The source made the active and inactive calls. No cut-off for these calls is given here.
